The numbers were not newly measured in US20150111372A1 (priority 2013, published 2015), which cites them from elsewhere.

For data set [1] the following is noted: HMIS rating.
The conditions of data set [2]: Table C.

Consider Arsenic Acid, for which, in data set [1], the FLAMMABILITY is 0, the HEALTH was 4 · and the “PHYSICAL HAZARD” value is recorded as 1. Also, the “Solubility, Water” value in data set [2] is given as 302 g/100 g.
